The source of these data is ChEMBL document CHEMBL6071202, “Design, Synthesis, and Biological Evaluation of 3-Amino-pyrazine-2-carboxamide Derivatives as Novel FGFR Inhibitors” (ACS Med Chem Lett, 2024).

Protein sequences, listed by entry. Tags and fused reporters are not part of them.
UniProt P25101, whole entry: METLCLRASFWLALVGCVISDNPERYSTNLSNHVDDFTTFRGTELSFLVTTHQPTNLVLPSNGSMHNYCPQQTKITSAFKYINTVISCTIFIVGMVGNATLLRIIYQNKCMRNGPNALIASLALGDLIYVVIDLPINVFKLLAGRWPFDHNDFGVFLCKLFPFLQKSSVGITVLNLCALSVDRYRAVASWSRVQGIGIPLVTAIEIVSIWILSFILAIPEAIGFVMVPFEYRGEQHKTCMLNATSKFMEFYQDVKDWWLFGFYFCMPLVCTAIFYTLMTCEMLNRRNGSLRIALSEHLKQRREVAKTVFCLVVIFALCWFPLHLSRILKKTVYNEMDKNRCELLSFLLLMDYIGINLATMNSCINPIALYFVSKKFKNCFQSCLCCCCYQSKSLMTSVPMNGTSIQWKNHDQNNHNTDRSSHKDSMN

The assay addresses Endothelin-1 receptor (Homo sapiens, UniProt P25101). The assay can be described thus: Displacement of 125[I]-ET-1 from human ETA.

pKi: −log10 of the molar value.

Take `COc1nc(C)cnc1NS(=O)(=O)c1cccnc1-c1ccc(-c2nnco2)cc1` [ZIBOTENTAN]: the pKi was 7.89.

For orientation: pKi means the negative decadic logarithm of the Ki, by convention in mol/L. High values mean a small Ki, low ones a large Ki.
